The source of these data is patent publication US5254569A, “(Amidomethyl)nitrogen heterocyclic analgesics” (The Du Pont Merck Pharmaceutical Company, priority 1991, dated 1993).

Amino acid sequences for entries named in this document (tags omitted). Residues count along the entry.
UniProt A0A286XTF2, 1-366: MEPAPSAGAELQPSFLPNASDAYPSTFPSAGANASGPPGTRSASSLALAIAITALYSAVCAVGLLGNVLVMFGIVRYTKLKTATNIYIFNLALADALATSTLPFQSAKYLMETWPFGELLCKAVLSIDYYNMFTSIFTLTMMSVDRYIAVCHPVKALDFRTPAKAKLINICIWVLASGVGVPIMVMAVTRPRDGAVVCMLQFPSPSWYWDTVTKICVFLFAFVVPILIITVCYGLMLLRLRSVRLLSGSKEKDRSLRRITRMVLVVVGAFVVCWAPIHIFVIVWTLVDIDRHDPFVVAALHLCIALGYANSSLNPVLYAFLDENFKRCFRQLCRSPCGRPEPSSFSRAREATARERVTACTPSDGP

The target of the assay is T1, delta opioid receptor (Cavia porcellus, UniProt A0A286XTF2).
T1 construct: Whole brains were homogenized (20 sec) in 10 vol (wt/vol) of ice-cold 0.34 M sucrose; tissue Charles River (animals); host or cells: guinea pig whole-brain membranes
The format is binding, guinea pig. The note with it: read-out: apparent Kd.

In the case of “[D-Ala^2 -D-Leu^5 ]enkephalin [[3H]DADLE]”, the Kd was 0.64 nM.
